Laboratory results reported in ChEMBL document CHEMBL1145813, “Synthesis and evaluation of 11C-labeled 6-substituted 2-arylbenzothiazoles as amyloid imaging agents” (J Med Chem, 2003).

Protein sequences, listed by entry. Tags and fused reporters are not part of them.
UniProt P05067, whole entry: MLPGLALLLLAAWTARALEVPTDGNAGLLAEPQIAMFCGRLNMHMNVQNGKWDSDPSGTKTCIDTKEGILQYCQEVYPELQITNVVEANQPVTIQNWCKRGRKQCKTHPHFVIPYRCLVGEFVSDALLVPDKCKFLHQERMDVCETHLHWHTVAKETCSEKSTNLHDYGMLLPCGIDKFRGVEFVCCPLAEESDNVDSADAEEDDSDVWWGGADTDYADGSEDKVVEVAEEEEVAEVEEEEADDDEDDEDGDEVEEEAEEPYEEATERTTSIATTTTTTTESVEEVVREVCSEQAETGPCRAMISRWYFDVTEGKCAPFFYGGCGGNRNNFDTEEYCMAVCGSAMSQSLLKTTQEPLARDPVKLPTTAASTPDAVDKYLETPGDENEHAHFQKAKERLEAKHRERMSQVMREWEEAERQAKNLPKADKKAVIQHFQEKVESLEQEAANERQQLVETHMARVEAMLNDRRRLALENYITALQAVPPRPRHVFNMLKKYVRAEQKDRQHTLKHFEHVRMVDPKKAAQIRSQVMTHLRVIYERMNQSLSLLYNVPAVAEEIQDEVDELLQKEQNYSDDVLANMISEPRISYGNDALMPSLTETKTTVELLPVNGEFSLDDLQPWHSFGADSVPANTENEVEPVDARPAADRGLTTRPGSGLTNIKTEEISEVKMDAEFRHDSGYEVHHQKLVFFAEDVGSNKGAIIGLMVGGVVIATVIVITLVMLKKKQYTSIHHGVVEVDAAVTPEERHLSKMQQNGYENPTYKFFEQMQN

Target: Amyloid-beta precursor protein (Homo sapiens, UniProt P05067)
Experiment: Binding affinity for Amyloid beta 1-40 aggregates fibrils in competition with BTA-1

In the case of `Cc1ccc2c(c1)sc(-c1ccc(N(C)C)cc1)[n+]2C`, the pKi was 6.24.

pKi: −log10 of the molar value.
